Source: patent US6030975A, “Carboxylic acid derivatives, their preparation and use in treating cancer” (priority 1997, dated 2000)

Target: T1, ETB receptor (Cavia porcellus, UniProt H0VTF3)
T1 construct: Guinea pig cerebella were homogenized; from tissue; host or cells: guinea pig cerebellum membranes
T1 sequence (H0VTF3 27-415): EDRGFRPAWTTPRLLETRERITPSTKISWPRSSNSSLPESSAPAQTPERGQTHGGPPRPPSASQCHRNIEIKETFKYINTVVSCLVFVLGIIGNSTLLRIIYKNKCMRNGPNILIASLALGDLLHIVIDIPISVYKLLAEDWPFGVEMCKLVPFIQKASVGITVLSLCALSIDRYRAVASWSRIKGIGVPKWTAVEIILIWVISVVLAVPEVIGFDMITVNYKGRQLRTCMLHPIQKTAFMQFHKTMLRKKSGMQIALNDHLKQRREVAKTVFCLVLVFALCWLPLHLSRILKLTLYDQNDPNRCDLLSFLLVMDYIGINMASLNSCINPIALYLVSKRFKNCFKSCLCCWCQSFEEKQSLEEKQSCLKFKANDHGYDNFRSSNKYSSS
Test: ETB receptor binding assay ([125I]-RZ3) on guinea pig cerebellar membranes
Conditions: Table III

Row | Ki | SMILES
1 | 57 nM | COc1nc(OC(C(=O)O)C(OC)(c2ccccc2)c2ccccc2)nc2c1CCO2 (centres unmarked) [Compound I-87]
2 | 29 nM | COc1cc(C)nc(OC(C(=O)O)C(OC)(c2ccccc2)c2ccccc2)n1 (centres unmarked) [Compound I-103]
